Results reported in ChEMBL document CHEMBL1128174, “Enhanced D1 affinity in a series of piperazine ring substituted 1-piperazino-3-arylindans with potential atypical antipsychotic activity” (J Med Chem, 1995).

Protein sequences, listed by entry. Tags and fused reporters are not part of them.
UniProt P14416, whole entry, looked up: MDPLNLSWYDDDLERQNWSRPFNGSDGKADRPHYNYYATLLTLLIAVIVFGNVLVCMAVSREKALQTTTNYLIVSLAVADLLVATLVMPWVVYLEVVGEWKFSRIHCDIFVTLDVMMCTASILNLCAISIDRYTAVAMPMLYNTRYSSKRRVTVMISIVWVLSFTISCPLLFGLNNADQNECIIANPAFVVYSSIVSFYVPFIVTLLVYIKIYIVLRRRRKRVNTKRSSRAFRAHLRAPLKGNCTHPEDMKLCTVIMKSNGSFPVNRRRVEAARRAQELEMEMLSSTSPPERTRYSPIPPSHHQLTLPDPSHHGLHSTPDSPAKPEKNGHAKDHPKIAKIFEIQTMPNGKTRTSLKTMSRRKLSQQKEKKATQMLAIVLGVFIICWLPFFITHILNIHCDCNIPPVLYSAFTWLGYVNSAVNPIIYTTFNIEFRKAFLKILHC
UniProt P21728, whole entry, looked up: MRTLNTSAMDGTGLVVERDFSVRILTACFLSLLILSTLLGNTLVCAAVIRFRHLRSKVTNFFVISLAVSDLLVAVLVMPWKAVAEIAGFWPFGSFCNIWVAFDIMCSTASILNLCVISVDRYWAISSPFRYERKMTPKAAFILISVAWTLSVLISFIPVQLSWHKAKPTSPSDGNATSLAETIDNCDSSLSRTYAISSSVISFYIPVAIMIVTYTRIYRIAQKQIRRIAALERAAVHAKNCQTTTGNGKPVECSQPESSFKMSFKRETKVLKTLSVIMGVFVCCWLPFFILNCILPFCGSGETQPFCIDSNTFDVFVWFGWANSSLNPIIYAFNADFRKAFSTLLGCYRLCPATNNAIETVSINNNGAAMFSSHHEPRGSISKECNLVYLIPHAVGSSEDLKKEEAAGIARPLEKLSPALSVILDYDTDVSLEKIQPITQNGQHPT

Biological target: Dopamine D1 and D2 receptor (Homo sapiens) (UniProt P14416+P21728)
Experiment: Ratio of binding affinity towards D2 to D1 receptor
Format: protein assay

SMILES: CC1(C)CN(C2CC(c3ccsc3)c3ccc(Cl)cc32)CCN1 (stereo in doubt; (+)-54)
- Ratio: 15
